# scFv variants of Ab-14 (heavy chain) against a SARS-CoV-2 spike peptide

All variants were tested on one target, the spike HR2 peptide PDVDLGDISGINAS (SARS-CoV-2).

Ab-14 is the parent antibody, in scFv form: VH, then three GGGGS repeats, then VL. The light chain is unchanged in all variants.
VH: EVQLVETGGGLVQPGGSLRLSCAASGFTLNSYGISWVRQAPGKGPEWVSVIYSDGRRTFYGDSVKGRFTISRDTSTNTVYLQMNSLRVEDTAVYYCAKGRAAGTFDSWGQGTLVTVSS
VL: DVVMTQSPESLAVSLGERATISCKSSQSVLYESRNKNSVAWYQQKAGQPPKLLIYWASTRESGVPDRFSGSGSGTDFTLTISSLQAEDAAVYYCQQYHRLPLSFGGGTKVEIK

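AAYL49 was designed without a model: most single CDR substitutions and a random sample of double and triple ones. Affinity was read by AlphaSeq, a pooled yeast mating assay with surface-displayed partners. The frequency of each diploid, read from paired DNA barcodes, reflects how well the two displayed proteins bind. Each replicate has its own calibration line, from reference interactions of the BCL2 family. Mating was done three times.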

Changes read parent residue, position, new residue, counted from the first residue of the VH shown. Scale: log10 of Kd in nM, estimated from mating counts; low values are strong binders. The mean shown is taken over the replicates in which the pair was detected. An entry "nd" has no value in the source: the pair was not observed among the diploids in that replicate. This suggests poor binding but is not conclusive. Nonspecific signal, from three strains lacking the peptide, appeared in 15% of pairings of library AAYL49, centred on 4.06 (5% of these signals below 2.83); values are not corrected for it. Also given: how often the same scFv was detected with the empty control strains.

R56V+Y60V+S107V: 1.97, 1.53, 2.02 (mean 1.84; controls 3 of 9).
L29S+Y32R+A101P: nd, nd, nd (controls 0 of 9).
S35P+G61L+T104A: 5.77, nd, 2.68 (mean 4.22; controls 2 of 9).
G33Y+G55E+G61P: 4.03, 3.08, 5.61 (mean 4.24; controls 2 of 9).
G61V+V64H+G99L: nd, nd, 5.65 (controls 7 of 9).
N30Q+T58Q+D106P: nd, 2.45, 4.24 (mean 3.34; controls 1 of 9).
N30P+S63K: 2.14, 1.84, 2.04 (mean 2.01; controls 4 of 9).
G55K+T58D+G61K: 4.29, 3.05, nd (mean 3.67; controls 3 of 9).
T28F+L29P+R57S: nd, nd, 3.80 (controls 1 of 9).
Y52S+S53H+D54Y: nd, nd, nd (controls 0 of 9).
L29S+G99T+S107C: 3.67, 3.48, nd (mean 3.58; controls 0 of 9).
Y32G+S35G+D106P: nd, nd, nd (controls 2 of 9).
R56A+S63V+A101F: nd, 3.38, nd (controls 1 of 9).
V50A+R56Y+R57N: nd, 2.62, nd (controls 0 of 9).
S35R+A101Q+A102D: nd, nd, nd (controls 0 of 9).
N30W+Y52R+K65S: 3.90, nd, nd (controls 0 of 9).
Y52R+G99N+G103T: nd, 5.17, 5.85 (mean 5.51; controls 2 of 9).
Y52A+T58I+A101K: nd, nd, nd (controls 1 of 9).
I51Q: 4.75, 5.03, 4.37 (mean 4.72; controls 7 of 9).
S31W+R100C+S107W: 4.91, 4.18, nd (mean 4.55; controls 3 of 9).
V64W+G99K+D106Y: nd, nd, 5.33 (controls 3 of 9).
L29P+D62K+S63D: nd, nd, nd (controls 1 of 9).
T28I+R57I+G103P: nd, nd, 4.36 (controls 3 of 9).
Y32W+S53E+R100V: nd, nd, 3.93 (controls 0 of 9).
Y52R+R57M+A102F: nd, nd, nd (controls 1 of 9).
T28E+I34P+T104S: nd, nd, nd (controls 0 of 9).
F27D+G33K+T104G: nd, 3.48, nd (controls 6 of 9).
N30L+D54N+G55P: nd, nd, nd (controls 0 of 9).
L29Q+S31D+G61V: 2.67, nd, nd (controls 0 of 9).
G26D+N30G+G61R: 2.86, 3.34, nd (mean 3.10; controls 1 of 9).
Y52Q+S107R: nd, nd, nd (controls 0 of 9).
I51R+S53T+F105H: nd, nd, nd (controls 3 of 9).
T104R: nd, nd, nd (controls 0 of 9).
G103H: nd, nd, nd (controls 0 of 9).
D62C+S63A+A101F: 4.02, 3.70, 3.67 (mean 3.80; controls 5 of 9).
S31V+Y52L+V64R: nd, nd, 4.21 (controls 2 of 9).

Top 2 of the variants detected in all replicates, tightest first:

R56V+Y60V+S107V: 1.97, 1.53, 2.02 (mean 1.84; controls 3 of 9).
N30P+S63K: 2.14, 1.84, 2.04 (mean 2.01; controls 4 of 9).

The measurements come from Engelhart et al. 2022 (doi:10.1038/s41597-022-01779-4) through the FLAb antibody collection.